Our source for the Activity values is ChEMBL document CHEMBL5325492, “PROTACs Targeting MLKL Protect Cells from Necroptosis” (J Med Chem, 2023).

This assay deals with HT-29. The experiment in a line: Protection against TSZ-induced necroptosis in human HT-29 cells assessed as cell viability incubated for 24 hrs by CellTiter Glo assay. It is filed as functional, cell-based. The following applies: dose 0.1-10 µM. (In ATP-based viability assays light output follows the ATP content of the culture.)

For `COc1ccc(C(=O)N2CCC3(CCN(C(=O)CCCCCCCOc4cccc(Nc5[nH]nc(-c6ccc(NS(=O)(=O)C(F)F)cc6)c5C(N)=O)c4)CC3)CC2)cc1N1CCC(=O)NC1=O`, the Activity entry is “Dose-Dependent Effect”.
